Laboratory results reported in patent publication US20100173010A1.
Only a part of the results on these compounds is given; other tests are left out.

Key:
human chondrocytes = assay: Cytotoxic effect on human chondrocytes, MTT method; conditions: 24 hours, 4 separate experiments
[1] = Isotony / osmolality of solutions and formulations; conditions: for Isotony: 500 mg polymetaphosphate in 100 ml of PBS buffer (Table 1.A); for Osmolality (mOsm): pH brought back to 7.5
[2] = test system: human polymorphonucleates (PMN); assay: Vitality of human polymorphonucleates (PMN), Trypan
superoxide anion = assay: Superoxide anion inhibition, PMA-stimulated PMNs, cytochrome-C reduction
human PMNs = assay: Inhibition of the chemiluminescence produced by human PMNs stimulated with opsonized zymosan
[3] = Table 7.C (Tests with SMP; head prints SEMP), 0.5 mg/ml in PBS
[4] = Table 7.C (Tests with SMP; head prints SEMP), 1 mg/ml in PBS
[5] = Table 7.C (Tests with SMP; head prints SEMP), 2 mg/ml in PBS
[6] = Table 7.C (Tests with SMP; head prints SEMP), 4 mg/ml in PBS
[7] = polymetaphosphate alone 0.5 mg/ml in PBS
[8] = polymetaphosphate alone 1 mg/ml in PBS
[9] = polymetaphosphate alone 2 mg/ml in PBS
[10] = polymetaphosphate alone 4 mg/ml in PBS
[11] = polymetaphosphate alone […] in PBS

## Cyclic sodium hexametaphosphate
Human chondrocytes; 1 mg/ml
  % of metabolically active cells (mean ± SD): 86.7 ± 4.6%
Human chondrocytes; 2 mg/ml
  % of metabolically active cells (mean ± SD): 85.2 ± 6.8%
Human chondrocytes; 5 mg/ml
  % of metabolically active cells (mean ± SD): 68.0 ± 5.2%
Human chondrocytes; 15 mg/ml
  % of metabolically active cells (mean ± SD): 48.3 ± 8.4%
[1]
  Isotony: Isotony = 285 mOsm
[1]; Table 7.A, SEMP 0.5 mg/ml in PBS
  Osmolality (mOsm): 273 mOsm
[1]; Table 7.A, SEMP 1 mg/ml in PBS
  Osmolality (mOsm): 274 mOsm
[1]; Table 7.A, SEMP 2 mg/ml in PBS
  Osmolality (mOsm): 274 mOsm
[1]; Table 7.A, SEMP 4 mg/ml in PBS
  Osmolality (mOsm): 280 mOsm
[1]; [3]
  Osmolality (mOsm): 268 mOsm
[1]; [4]
  Osmolality (mOsm): 269 mOsm
[1]; [5]
  Osmolality (mOsm): 271 mOsm
[1]; [6]
  Osmolality (mOsm): 282 mOsm
[2]; Table 7.A, SEMP 0.5 mg/ml in PBS, 37° C. for 5 minutes
  % Vitality PMN: 100%
[2]; Table 7.A, SEMP 1 mg/ml in PBS, 37° C. for 5 minutes
  % Vitality PMN: 97%
[2]; Table 7.A, SEMP 2 mg/ml in PBS, 37° C. for 5 minutes
  % Vitality PMN: 96%
[2]; Table 7.A, SEMP 4 mg/ml in PBS, 37° C. for 5 minutes
  % Vitality PMN: 92%
[2]; [3]
  % Vitality PMN: 99%
[2]; [4]
  % Vitality PMN: 97%
[2]; [5]
  % Vitality PMN: 98%
[2]; [6]
  % Vitality PMN: 93%
Superoxide anion
  inhibition of the production of superoxide anion (in words): inhibitory power on the production of superoxide anion, in direct proportion to its concentration
Superoxide anion; PBS + SEMP 0.5 mg/ml
  Test 1 % inhibition (superoxide anion): 12.5%
  Test 2 % inhibition (superoxide anion): 14.0%
Superoxide anion; PBS + SEMP 1 mg/ml
  Test 1 % inhibition (superoxide anion): 30.8%
  Test 2 % inhibition (superoxide anion): 38.8%
Superoxide anion; PBS + SEMP 2 mg/ml
  Test 1 % inhibition (superoxide anion): 43.7%
  Test 2 % inhibition (superoxide anion): 47.4%
Superoxide anion; PBS + SEMP 5 mg/ml
  Test 1 % inhibition (superoxide anion): 53.1%
  Test 2 % inhibition (superoxide anion): 56.2%
Human PMNs
  inhibitory effect on the chemiluminescence produced by human PMNs (in words): powerful inhibiting effect
Human PMNs; [7]
  Test 1 % inhibition (chemiluminescence): 32.4%
  Test 2 % inhibition (chemiluminescence): 17.5%
  Test 3 % inhibition (chemiluminescence): 33.4%
Human PMNs; [8]
  Test 1 % inhibition (chemiluminescence): 64.8%
  Test 2 % inhibition (chemiluminescence): 50.0%
  Test 3 % inhibition (chemiluminescence): 66.9%
Human PMNs; [9]
  Test 1 % inhibition (chemiluminescence): 74.6%
  Test 2 % inhibition (chemiluminescence): 72.5%
  Test 3 % inhibition (chemiluminescence): 70.0%
Human PMNs; [10]
  Test 1 % inhibition (chemiluminescence): 81.0%
  Test 2 % inhibition (chemiluminescence): 80.0%
  Test 3 % inhibition (chemiluminescence): 74.3%
Human PMNs; [11]
  Test 1 % inhibition (chemiluminescence): 97.8%
  Test 2 % inhibition (chemiluminescence): 84.0%
  Test 3 % inhibition (chemiluminescence): 76.9%

## Polymeric sodium metaphosphate
Human chondrocytes; 1 mg/ml
  % of metabolically active cells (mean ± SD): 95.0 ± 3.2%
Human chondrocytes; 2 mg/ml
  % of metabolically active cells (mean ± SD): 92.8 ± 4.0%
Human chondrocytes; 5 mg/ml
  % of metabolically active cells (mean ± SD): 63.2 ± 5.1%
Human chondrocytes; 15 mg/ml
  % of metabolically active cells (mean ± SD): 50.0 ± 7.6%
[1]
  Isotony: Isotony = 284 mOsm
Human PMNs; [7]
  Test 1 % inhibition (chemiluminescence): 42.5%
  Test 2 % inhibition (chemiluminescence): 52.8%
  Test 3 % inhibition (chemiluminescence): 34%
Human PMNs; [8]
  Test 1 % inhibition (chemiluminescence): 69.1%
  Test 2 % inhibition (chemiluminescence): 70%
  Test 3 % inhibition (chemiluminescence): 70%
Human PMNs; [9]
  Test 1 % inhibition (chemiluminescence): 77.6%
  Test 2 % inhibition (chemiluminescence): 70%
  Test 3 % inhibition (chemiluminescence): 73.6%
Human PMNs; [10]
  Test 1 % inhibition (chemiluminescence): 79.8%
  Test 2 % inhibition (chemiluminescence): 76%
  Test 3 % inhibition (chemiluminescence): 79.2%
Human PMNs; [11]
  Test 1 % inhibition (chemiluminescence): 82%
  Test 2 % inhibition (chemiluminescence): 75%
  Test 3 % inhibition (chemiluminescence): 81.5%

## Linear sodium tripolyphosphate
[1]
  Isotony: Isotony = 300 mOsm

## Cyclic sodium trimetaphosphate
[1]
  Isotony: Isotony = 314 mOsm
